Data taken from patent US5387610A, “Peptide derivatives of collagenase inhibitor” (Research Corporation Technologies, Inc., priority 1992, dated 1995).
Like-named read-outs stand apart in the source and are kept apart here.

Amino acid sequences for entries named in this document (tags omitted). Residues count along the entry.
UniProt P21692, 100-469 limits assumed: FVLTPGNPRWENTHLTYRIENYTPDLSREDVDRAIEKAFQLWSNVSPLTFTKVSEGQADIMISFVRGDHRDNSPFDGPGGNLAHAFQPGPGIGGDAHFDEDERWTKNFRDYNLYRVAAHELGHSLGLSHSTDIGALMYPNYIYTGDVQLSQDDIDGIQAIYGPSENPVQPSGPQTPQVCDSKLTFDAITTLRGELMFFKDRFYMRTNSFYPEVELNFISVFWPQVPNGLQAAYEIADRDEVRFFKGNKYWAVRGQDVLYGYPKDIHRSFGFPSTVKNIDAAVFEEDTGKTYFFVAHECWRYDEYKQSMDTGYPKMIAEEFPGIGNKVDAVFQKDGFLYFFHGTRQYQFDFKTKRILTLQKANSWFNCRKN
UniProt Q95JA4, 111-661 limits assumed: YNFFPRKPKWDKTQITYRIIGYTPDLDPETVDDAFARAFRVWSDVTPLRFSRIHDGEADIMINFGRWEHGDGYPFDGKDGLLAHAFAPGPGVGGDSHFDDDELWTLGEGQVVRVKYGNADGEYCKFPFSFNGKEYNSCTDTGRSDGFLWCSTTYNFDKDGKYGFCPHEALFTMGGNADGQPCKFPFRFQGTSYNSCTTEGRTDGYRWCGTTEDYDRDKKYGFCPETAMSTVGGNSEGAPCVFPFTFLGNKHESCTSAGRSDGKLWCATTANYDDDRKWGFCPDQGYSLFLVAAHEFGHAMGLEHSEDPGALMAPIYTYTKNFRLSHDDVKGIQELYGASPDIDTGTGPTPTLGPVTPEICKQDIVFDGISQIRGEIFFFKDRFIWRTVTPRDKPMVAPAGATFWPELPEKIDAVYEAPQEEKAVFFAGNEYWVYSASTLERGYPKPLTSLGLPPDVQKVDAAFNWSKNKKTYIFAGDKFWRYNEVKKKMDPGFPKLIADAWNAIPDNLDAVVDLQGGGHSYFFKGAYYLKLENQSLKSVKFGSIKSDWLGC
UniProt P03956, 100-469 limits assumed: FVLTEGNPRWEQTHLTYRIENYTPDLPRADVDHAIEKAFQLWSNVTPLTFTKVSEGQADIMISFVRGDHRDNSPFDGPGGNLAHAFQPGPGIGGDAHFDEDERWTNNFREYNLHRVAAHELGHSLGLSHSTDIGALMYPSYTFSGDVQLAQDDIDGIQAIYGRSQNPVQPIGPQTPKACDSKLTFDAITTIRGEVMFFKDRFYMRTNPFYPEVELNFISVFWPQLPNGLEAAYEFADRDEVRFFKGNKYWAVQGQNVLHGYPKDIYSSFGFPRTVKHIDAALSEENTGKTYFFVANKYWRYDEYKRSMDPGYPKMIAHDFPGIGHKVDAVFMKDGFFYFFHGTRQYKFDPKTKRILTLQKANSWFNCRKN

Columns and labels:
[1] = target: Porcine synovial collagenase (Sus scrofa, UniProt P21692); assay: Porcine synovial collagenase activity with type I (calf skin) collagen, gel densitometry (PSC/CSC); details: read-out: IC50 (μM) PSC/CSC, acid-soluble calf skin collagen 0.8 μM, 35° C., pH 7.7, a range means 50% inhibition lay between the values, successive lines per compound = diastereomers, higher C18 mobility first
Protocol: Porcine synovial collagenase activity (PSC) was measured with type I collagen essentially as described by Darlak et al. (1990). Varying amounts of inhibitor were added to the acid-soluble calf skin collagen (0.8 μM) at 35° C. in 0.05M tris-HCl, 0.2M NaCl, 5 mM CaCl2, 0.25M glucose, pH 7.7. Collagen degradation was initiated by adding purified porcine synovial collagenase and the reactions were stopped by the addition of an equal volume of sample dilution buffer (Laemmli, 1970) followed by boiling for 2-3 min. Undegraded collagen was resolved from its degradation products by polyacrylamide slab gel electrophoresis as described by Laemmli (1970). The gels were fixed in isopropanol/acetic acid/water (100:40:300 v/v) and then stained with 1% Coomassie Blue R-250 in fixing solution. After destaining, the percentage of α1 chain converted to the corresponding TC fragment was estimated by densitometry using a Bio-Rad model 610 video densitometer. IC50 values were estimated from the dependence of the percent of collagen degraded on inhibitor concentration.

pig synovial collagenase = pig synovial collagenase (Sus scrofa, UniProt P21692); assay: Pig synovial collagenase with fluorogenic substrate FS-7 (PSC/FS-7); details: read-out: IC50 (μM) PSC/FS-7, substrate Dnp-Pro-Leu-Gly-Leu-Trp-Ala-D-Arg-NH2, successive lines per compound = diastereomers, higher C18 mobility first
Protocol: [The source words this procedure for another target and reports this target under the same test.] (§1) Recombinant human fibroblast collagenase (rHFC) and porcine synovial gelatinase (PSG) were assayed at 37° C. by the procedure of Stack and Gray (1989). The fluorogenic metalloproteinase substrate Dnp-Pro-Leu-Gly-Leu-Trp-Ala-D-Arg-NH2 was dissolved at an initial concentration of 10 μM in 0.05M tris-HCl, 0.2M NaCl, 5 mM CaCl2, pH 7.7. Hydrolysis of the substrate at the Gly-Leu bond results in an increase in fluorescence that was monitored using an SLM-500C spectrofluorometer with excitation at 280 nm and emission at 346 nm. The reaction was initiated by addition of the enzyme; after determining the initial rate of substrate hydrolysis an aliquot of inhibitor was added and the inhibited rate redetermined. For lower affinity inhibitors (IC50>>[E0 ], where E0 is the enzyme concentration), inhibitor potencies were determined from plots of log (A0 /Ai-1) vs. log [Inhibitor], where A0 is the activity measured in the absence of inhibitor and Ai is that measured in the presence of inhibitor at concentration i (Ambrose et al., 1950). For high affinity inhibitors (IC50 =[E0 ]) only an upper limit of inhibitor potency could be estimated (Dixon and Webb, 1979).

[2] = target: porcine synovial gelatinase (Sus scrofa, UniProt Q95JA4); assay: Porcine synovial gelatinase with fluorogenic substrate FS-7 (PSG/FS-7); details: read-out: IC50 (μM) PSG/FS-7, substrate FS-7 10 μM, 37° C., pH 7.7, successive lines per compound = diastereomers, higher C18 mobility first, upper limit only for high affinity inhibitors
Protocol: as §1

[3] = target: Recombinant human fibroblast collagenase (Homo sapiens, UniProt P03956); assay: Recombinant human fibroblast collagenase with fluorogenic substrate FS-7 (rHFC/FS-7); details: read-out: IC50 (μM) rHFC/FS-7, substrate FS-7 10 μM, 37° C., pH 7.7, successive lines per compound = diastereomers, higher C18 mobility first
Protocol: as §1

[4] = diastereomer of higher mobility
[5] = diastereomer of slower mobility
[6] = diastereomer of higher mobility, C18 column

IC50 [1, 4] [µM]	IC50 [1, 5] [µM]	IC50 (pig synovial collagenase; diastereomer of higher mobility on C18 column) [µM]	IC50 (pig synovial collagenase; [5]) [µM]	IC50 [2, 4] [µM]	IC50 [2, 5] [µM]	IC50 [3, 6] [µM]	IC50 [3, 5] [µM]	IC50 [2, 6] [µM]	IC50 ([2]; diastereomer of slower mobility, C18 column) [µM]	SMILES
0.03 to 0.1	1 to 3	0.01	2.8	0.004	1.3	–	–	–	–	COc1ccc(C[C@H](NC(=O)C(CC(=O)NO)CC(C)C)C(=O)N[C@@H](C)C(N)=O)cc1OC (stereo partly shown)
–	–	–	–	–	–	0.0025	2.2	< 0.0001	0.5	CC(C)CC(CC(=O)NO)C(=O)N[C@@H](Cc1c[nH]c2ccccc12)C(N)=O (stereo partly shown)
